Here are results for 1 molecule from ChEMBL document CHEMBL2380202, “Identification of substituted 2-thio-6-oxo-1,6-dihydropyrimidines as inhibitors of human lactate dehydrogenase” (Bioorg Med Chem Lett, 2013).

The assay concerns the target L-lactate dehydrogenase A chain (Homo sapiens, UniProt P00338). As to the kind of experiment: Inhibition of human recombinant carboxy-terminal his-tagged LDHA (1 to 331) expressed in Escherichia coli using pyruvate as substrate after 10 mins by UV endpoint analysis.

Broadly, the IC50 is the midpoint of a concentration-inhibition curve. Regarding `NC(=O)C(=O)O` [OXAMATE], the half-inhibitory concentration (IC50) was found to be 57.2 µM.
